# Experimental data published in patent US20230332145A1, “BIFUNCTIONAL MOLECULES AND METHODS OF USING THEREOF” (Flagship Pioneering, Inc., priority 2020, published 2023).
# Protein sequences, listed by entry. Tags and fused reporters are not part of them. Lines headed by an entry give the natural chain unless they say otherwise; changes in a name come on top.
# UniProt Q06187: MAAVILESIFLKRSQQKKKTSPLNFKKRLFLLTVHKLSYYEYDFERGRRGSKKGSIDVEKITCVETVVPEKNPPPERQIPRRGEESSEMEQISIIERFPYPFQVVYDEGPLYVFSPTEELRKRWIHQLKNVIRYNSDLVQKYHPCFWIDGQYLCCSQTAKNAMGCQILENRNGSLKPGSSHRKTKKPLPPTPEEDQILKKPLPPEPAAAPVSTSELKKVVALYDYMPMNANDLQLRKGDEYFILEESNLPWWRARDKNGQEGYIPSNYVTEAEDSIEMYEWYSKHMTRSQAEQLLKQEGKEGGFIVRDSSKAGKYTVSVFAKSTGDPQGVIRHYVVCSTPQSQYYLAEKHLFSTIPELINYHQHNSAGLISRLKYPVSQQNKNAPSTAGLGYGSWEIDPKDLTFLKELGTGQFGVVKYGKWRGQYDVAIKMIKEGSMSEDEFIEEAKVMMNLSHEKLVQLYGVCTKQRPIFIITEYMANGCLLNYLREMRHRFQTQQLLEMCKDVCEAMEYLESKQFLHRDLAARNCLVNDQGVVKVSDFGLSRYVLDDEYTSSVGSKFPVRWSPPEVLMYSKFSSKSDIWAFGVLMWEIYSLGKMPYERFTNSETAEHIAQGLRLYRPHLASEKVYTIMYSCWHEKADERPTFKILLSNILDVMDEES
# Molecular target: T1, BTK protein and Cy5-labeled IVT RNA (Homo sapiens, UniProt Q06187)
# T1 construct: purchased Active Motif 81083
# Assay: In vitro ternary complex formation assay (PAGE gel shift)
# Type: binding
# Conditions: 90 minutes room temperature; for ternary complex formation: supershift of BTK protein band in the presence of Cy5-IVT RNA: BTK protein + ASOi + Cy5-IVT RNA
# Method: In one reaction (#5), 5 pmol antisense RNA oligo of the sequence 5′CGUUAACUAGGCUUUA3′ (hereafter called N33-ASOi) conjugated at the 5′ end with Ibrutinib was mixed in PBS with 1 pmol purified BTK protein (Active Motif #81083), 200 pmol yeast rRNA (as non-specific blocker) and 10 pmol Cy5-labeled IVT RNA of the sequence 5′[…] […] […] AAGGCGAA3′ (SEQ ID NO: 51).
# All reactions were incubated at room temperature for 90 minutes protected from light, then mixed with a loading buffer containing final 0.5% SDS and 10% glycerol, and complexes separated by PAGE on a Bis-Tris 4-12% gel including an IRDye700 pre-stained protein molecular weight marker (LiCor). Immediately following electrophoresis, the gel was imaged using a LiCor Odyssey system with the 700 nm channel to identify the position of Cy5-IVT-RNA bands and MW marker. Subsequently, proteins in the gel were stained using InstantBlue colloidal coomassie stain (Expedeon) and re-imaged using transmitted light. The two images were lined up using size markers and lane positions to identify the relative positions of BTK protein bands and Cy5-IVT target RNA. (FIG. 1)
# This complex was further confirmed by Cy5-IVT-RNA fluorescence signal overlapping the super-shifted BTK protein band.
Substance,ternary complex formation: supershift of BTK protein band in the presence of Cy5-IVT RNA,binary complex formation: shift of BTK protein band (purified BTK protein reacted with ASOi)
SCR-ASOi: non-complementary RNA oligo 5′AGAGGUGGCGUGGUAG3′ conjugated at the 5′ end with Ibrutinib (5' Ibrutinib conjugate) [reference compound],complex stayed at arrow B level,–
N33-ASOi: antisense RNA oligo 5′CGUUAACUAGGCUUUA3′ conjugated at the 5′ end with Ibrutinib (5' Ibrutinib conjugate),further supershift,increase in MW of the BTK protein band
